Test results as given in article PMC3583384 (Journal of medicinal chemistry, 2012).
Read-outs that look alike come from different tables or passages of the source.

What was measured:
[1] = tested on: rats with normal iron stores; details: rats po 237 µmol/kg/dose b.i.d. (474 µmol/kg/d), planned 7 d, n = 5
[2] = tested on: rats with normal iron stores; details: rat, in vivo, po; cited from earlier work

Structure (SMILES) | survival of the dosing period [1] | survival of the dosing period [2]
C[C@]1(C(=O)[O-])CSC(c2ncccc2O)=N1.[Na+] [Compound 1, (S)-4,5-dihydro-2-(3-hydroxy-2-pyridinyl)-4-methyl-4-thiazolecarboxylic acid] | None of the 1-treated rats (n = 5) survived the planned 7-d exposure | –
C[C@]1(C(=O)[O-])CSC(c2ccc(O)cc2O)=N1.[Na+] [Compound 3, (S)-2-(2,4-dihydroxyphenyl)-4,5-dihydro-4-methyl-4-thiazolecarboxylic acid] | – | all of the treated rats (n = 3) survived
C[C@]1(C(=O)[O-])CSC(c2ncc(O)cc2O)=N1.[Na+] [Compound 6, (S)-4,5-dihydro-2-(3,5-dihydroxy-2-pyridinyl)-4-methyl-4-thiazolecarboxylic acid] | survived the full 7 d of treatment | –
COCCOCCOc1cnc(C2=N[C@@](C)(C(=O)[O-])CS2)c(O)c1.[Na+] [Compound 8, (S)-4,5-dihydro-2-[3-hydroxy-5-(3,6-dioxaheptyloxy)-2-pyridinyl]-4-methyl-4-thiazolecarboxylic acid] | All of the animals survived the drug dosing regimen | –
COCCOCCOc1ccnc(C2=N[C@@](C)(C(=O)[O-])CS2)c1O.[Na+] [Compound 10, (S)-4,5-dihydro-2-[3-hydroxy-4-(3,6-dioxaheptyloxy)-2-pyridinyl]-4-methyl-4-thiazolecarboxylic acid] | All of the animals survived the drug dosing regimen | –
